Experiment: Equilibrium solubility in pH 1.2 and pH 6.8 solutions, 37 °C, 24 h, HPLC
Assay type: physicochemical
Conditions: for Solubility in pH 1.2 buffer, Concentration: Figure 7a; for Solubility in pH 6.8 buffer, Concentration: Figure 7b; for Equilibrium Solubility after 24 h in pH 6.8: pH 6.8 solution, 37 °C, VPZ concentration by HPLC
Method: Excess amounts (~500 mg) of powder samples were added to 10 mL of pH 1.2 solution and 30 mL of pH 6.8 solution. […] After 24 h, aliquots of 2.5 mL were withdrawn from the suspension using a 0.45 μm nylon syringe filter and diluted immediately, followed by analysis of the VPZ concentration by HPLC.
The VPZ concentration was measured using an HPLC system (UFLC; Shimadzu) with a diode array detector and Shim-pack GIS-ODS C18 column (4.6 × 250 mm, 5 μm). HPLC analysis was conducted at a column oven temperature of 40 °C with a flow rate of 1 mL/min, and the mobile phase was a mixture of 20 mM ammonium formate in water (pH 3.05) and HPLC-grade MeOH with the addition of 10 mM triethylamine (TEA) (80% : 20%, v/v). The volume of the injected samples was 10 μL and the VPZ content was assayed spectrophotometrically at a wavelength of 245 nm.

| Solubility in pH 1.2 buffer, Concentration | Solubility in pH 6.8 buffer, Concentration | Equilibrium Solubility after 24 h in pH 6.8 [mg/mL] | Substance |
| --- | --- | --- | --- |
| 22,684 μg/mL | 5,740 μg/mL | 5.74 ±0.13 | Vonoprazan–resorcinol [VPZ-RES] |
| 16,349 μg/mL | 1,846 μg/mL | 1.85 ±0.31 | Vonoprazan–pyrogallol [VPZ-GAL] |

From PMC8877905, “Novel Cocrystals of Vonoprazan: Machine Learning-Assisted Discovery” (Pharmaceutics, 2022)
